# Laboratory results as given in patent publication US5849782A, “Methods of inhibiting neurodegenerative diseases” (The General Hospital Corporation, priority 1996, dated 1998).
# Amino acid sequences for entries named in this document (tags omitted).
# UniProt Q8BW75, whole entry: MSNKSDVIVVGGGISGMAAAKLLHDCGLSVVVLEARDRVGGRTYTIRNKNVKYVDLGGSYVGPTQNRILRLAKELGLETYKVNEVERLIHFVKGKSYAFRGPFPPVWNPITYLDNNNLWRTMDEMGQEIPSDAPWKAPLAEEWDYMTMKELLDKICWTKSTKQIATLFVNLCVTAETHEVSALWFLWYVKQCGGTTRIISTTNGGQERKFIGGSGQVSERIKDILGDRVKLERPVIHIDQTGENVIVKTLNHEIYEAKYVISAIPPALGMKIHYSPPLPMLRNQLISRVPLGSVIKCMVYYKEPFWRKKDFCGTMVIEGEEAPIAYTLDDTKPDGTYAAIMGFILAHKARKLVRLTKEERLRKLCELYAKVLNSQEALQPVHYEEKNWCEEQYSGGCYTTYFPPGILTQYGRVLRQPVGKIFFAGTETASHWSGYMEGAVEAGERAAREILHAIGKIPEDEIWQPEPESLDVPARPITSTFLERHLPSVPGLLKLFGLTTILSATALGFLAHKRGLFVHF
# UniProt Q61327, whole entry: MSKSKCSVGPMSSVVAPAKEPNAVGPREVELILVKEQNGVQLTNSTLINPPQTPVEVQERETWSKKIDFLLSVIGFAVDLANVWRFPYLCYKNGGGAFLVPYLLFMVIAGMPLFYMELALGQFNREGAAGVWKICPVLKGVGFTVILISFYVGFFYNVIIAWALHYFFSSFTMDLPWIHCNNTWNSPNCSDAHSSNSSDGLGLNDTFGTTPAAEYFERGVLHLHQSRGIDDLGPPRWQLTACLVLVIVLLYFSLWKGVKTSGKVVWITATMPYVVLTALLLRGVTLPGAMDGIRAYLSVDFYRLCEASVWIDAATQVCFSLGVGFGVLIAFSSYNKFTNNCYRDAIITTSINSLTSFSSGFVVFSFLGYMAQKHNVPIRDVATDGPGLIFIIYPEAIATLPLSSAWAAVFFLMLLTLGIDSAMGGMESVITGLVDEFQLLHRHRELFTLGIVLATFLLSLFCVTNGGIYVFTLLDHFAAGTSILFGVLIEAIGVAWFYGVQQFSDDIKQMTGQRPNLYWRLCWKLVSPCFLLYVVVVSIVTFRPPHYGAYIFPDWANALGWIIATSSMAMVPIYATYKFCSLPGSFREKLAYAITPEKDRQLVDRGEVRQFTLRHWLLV
# Experiments:
# MAO-B [1] = target: T1, MAO-B (Mus musculus, UniProt Q8BW75); assay: MAO-B activity in forebrain mitochondrial fractions of treated mice; format: biochemical; details: four doses at 2-h intervals: deprenyl 10 mg/kg i.p. or 7-NI 50 mg/kg s.c.; vehicle 5.79±0.44
# T1 construct: Crude mitochondrial preparations were obtain from the forebrains; from tissue; host or cells: mouse forebrain, crude mitochondrial fraction (P2 pellet on a discontinuous Ficoll gradient)
# MAO-B [2] = target: T1, MAO-B; assay: MAO-B activity in vitro, mitochondrial fraction of mouse forebrain; format: biochemical
# dopamine transporter = dopamine transporter (Mus musculus, UniProt Q61327)
Structure (SMILES),MAO-B activity in forebrain mitochondrial fraction after in vivo treatment (MAO-B [1]),concentration giving complete inhibition of MAO-B (MAO-B [2]),Ki (dopamine transporter)
"C#CCN(C)C(C)Cc1ccccc1 (stereo not drawn) [deprenyl, reference compound]",0.22±0.22 nmol/min/mg of protein,1.2 µM,–
OC1(c2ccc(Cl)cc2)c2ccccc2C2=NCCN21 (stereo not drawn) [mazindol],–,–,50 nM
